Data reported in patent US6372719B1, “ανβ3 integrin antagonists in combination with chemotherapeutic agents” (priority 1998, dated 2002).

The chains behind the UniProt entries cited, without tags or fusion partners. Residues count along the entry.
UniProt P05106, 27-788 limits assumed: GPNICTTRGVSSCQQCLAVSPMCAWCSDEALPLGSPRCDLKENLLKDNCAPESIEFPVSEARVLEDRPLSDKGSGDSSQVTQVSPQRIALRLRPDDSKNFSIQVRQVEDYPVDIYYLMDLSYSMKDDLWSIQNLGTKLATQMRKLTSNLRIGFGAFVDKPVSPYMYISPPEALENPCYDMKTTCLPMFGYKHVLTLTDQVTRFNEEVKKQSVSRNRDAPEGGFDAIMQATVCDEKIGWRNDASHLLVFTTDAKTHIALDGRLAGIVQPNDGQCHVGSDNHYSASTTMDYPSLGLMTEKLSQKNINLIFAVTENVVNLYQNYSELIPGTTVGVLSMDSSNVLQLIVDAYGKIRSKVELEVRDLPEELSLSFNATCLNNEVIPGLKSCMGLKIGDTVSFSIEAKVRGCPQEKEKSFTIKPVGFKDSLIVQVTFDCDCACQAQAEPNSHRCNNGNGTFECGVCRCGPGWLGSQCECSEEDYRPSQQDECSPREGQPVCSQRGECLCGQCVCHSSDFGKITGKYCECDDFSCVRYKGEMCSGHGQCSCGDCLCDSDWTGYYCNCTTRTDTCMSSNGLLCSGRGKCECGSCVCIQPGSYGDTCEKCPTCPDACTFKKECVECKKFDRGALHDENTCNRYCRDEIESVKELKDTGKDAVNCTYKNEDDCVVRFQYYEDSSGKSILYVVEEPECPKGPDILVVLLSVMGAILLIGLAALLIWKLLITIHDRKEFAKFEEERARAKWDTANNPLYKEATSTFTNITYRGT
UniProt P06756, 31-889 limits assumed: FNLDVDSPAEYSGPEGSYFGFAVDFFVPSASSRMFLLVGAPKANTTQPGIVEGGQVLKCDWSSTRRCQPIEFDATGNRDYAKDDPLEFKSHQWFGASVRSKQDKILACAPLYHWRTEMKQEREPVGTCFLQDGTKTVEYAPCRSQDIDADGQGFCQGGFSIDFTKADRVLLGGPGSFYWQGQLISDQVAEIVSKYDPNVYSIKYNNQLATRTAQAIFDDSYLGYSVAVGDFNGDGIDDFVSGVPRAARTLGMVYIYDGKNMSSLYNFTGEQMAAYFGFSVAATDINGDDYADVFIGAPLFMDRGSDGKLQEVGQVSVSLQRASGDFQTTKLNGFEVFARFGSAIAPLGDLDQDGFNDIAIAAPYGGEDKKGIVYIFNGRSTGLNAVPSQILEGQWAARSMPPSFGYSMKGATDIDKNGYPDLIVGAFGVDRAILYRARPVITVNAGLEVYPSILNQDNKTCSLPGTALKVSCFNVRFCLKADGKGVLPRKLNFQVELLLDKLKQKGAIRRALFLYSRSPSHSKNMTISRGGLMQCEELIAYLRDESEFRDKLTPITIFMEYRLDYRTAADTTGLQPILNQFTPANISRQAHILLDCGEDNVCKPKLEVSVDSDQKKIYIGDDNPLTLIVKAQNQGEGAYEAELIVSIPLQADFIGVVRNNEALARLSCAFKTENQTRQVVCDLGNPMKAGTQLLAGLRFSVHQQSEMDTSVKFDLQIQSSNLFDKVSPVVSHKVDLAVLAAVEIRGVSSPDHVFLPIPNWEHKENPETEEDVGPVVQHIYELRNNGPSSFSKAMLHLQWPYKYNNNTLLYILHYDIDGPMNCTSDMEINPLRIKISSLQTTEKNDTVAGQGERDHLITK
UniProt P06756, 891-1048 partner limits assumed: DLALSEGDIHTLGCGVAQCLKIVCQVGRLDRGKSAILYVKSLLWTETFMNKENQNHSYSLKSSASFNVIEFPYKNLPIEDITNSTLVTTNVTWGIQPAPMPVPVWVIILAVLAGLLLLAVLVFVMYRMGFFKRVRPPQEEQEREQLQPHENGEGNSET
UniProt P08514, 32-887 limits assumed: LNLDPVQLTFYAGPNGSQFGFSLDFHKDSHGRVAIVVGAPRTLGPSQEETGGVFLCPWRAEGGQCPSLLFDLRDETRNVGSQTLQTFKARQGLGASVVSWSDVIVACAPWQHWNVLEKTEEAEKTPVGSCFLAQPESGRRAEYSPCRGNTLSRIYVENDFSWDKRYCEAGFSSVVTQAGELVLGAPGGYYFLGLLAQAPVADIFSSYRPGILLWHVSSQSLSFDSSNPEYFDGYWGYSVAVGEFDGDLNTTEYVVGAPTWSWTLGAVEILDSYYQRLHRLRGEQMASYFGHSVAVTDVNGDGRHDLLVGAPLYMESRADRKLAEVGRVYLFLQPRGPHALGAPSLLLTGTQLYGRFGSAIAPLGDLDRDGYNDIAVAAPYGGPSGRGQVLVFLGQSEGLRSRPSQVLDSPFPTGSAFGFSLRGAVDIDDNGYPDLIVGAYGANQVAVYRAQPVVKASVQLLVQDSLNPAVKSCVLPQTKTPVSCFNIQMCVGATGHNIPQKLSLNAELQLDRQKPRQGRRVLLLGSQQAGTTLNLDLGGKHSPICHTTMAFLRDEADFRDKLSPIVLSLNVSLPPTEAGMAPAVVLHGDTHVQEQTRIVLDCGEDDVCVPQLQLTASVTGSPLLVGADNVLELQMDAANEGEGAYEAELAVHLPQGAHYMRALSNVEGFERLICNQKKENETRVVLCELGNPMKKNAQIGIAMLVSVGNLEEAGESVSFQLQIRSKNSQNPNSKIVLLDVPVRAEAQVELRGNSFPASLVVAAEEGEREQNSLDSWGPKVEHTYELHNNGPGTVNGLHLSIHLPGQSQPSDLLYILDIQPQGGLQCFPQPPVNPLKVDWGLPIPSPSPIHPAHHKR
UniProt P08514, 891-1039 partner limits assumed: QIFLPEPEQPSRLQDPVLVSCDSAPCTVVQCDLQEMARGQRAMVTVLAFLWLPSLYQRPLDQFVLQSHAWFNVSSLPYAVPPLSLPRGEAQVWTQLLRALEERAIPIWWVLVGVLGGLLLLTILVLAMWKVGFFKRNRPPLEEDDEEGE

Legend:
[1] = molecular target: Human vitronectin receptor (αvβ3) (Homo sapiens, UniProt P05106+P06756); assay: Vitronectin adhesion assay, solid phase receptor assay; details: read-out: IC50 αvβ3; inhibition of biotinylated vitronectin binding to purified receptor, in vitro
Protocol: Vitronectin Adhesion Assay Materials
Human vitronectin receptor (αvβ3) was purified from human placenta as previously described [Pytela et al., Methods in Enzymology 144:475-489 (1987)]. Human vitronectin was purified from fresh frozen plasma as previously described [Yatohgo et al., Cell Structure and Function, 13:281-292 (1988)]. Biotinylated human vitronectin was prepared by coupling NHS-biotin from Pierce Chemical Company (Rockford, Ill.) to purified vitronectin as previously described [Charo et al., J. Biol. Chem., 266(3):1415-1421 (1991)]. Assay buffer, OPD substrate tablets, and RIA grade BSA were obtained from Sigma (St. Louis, Mo.). Anti-biotin antibody was obtained from Calbiochem (La Jolla, Calif.). Linbro microtiter plates were obtained from Flow Labs (McLean, Va.). ADP reagent was obtained from Sigma (St. Louis, Mo.).
Solid Phase Receptor Assays
This assay was essentially the same as previously reported [Niiya et al., Blood, 70:475-483 (1987)]. […] The plate was read with a microtiter plate reader at a wavelength of 450 nm and when the maximum-binding control wells reached an absorbance of about 1.0, the final A450 were recorded for analysis. The data were analyzed using a macro written for use with the EXCEL spreadsheet program. The mean, standard deviation, and % CV were determined for duplicate concentrations. […]

[2] = molecular target: human fibrinogen receptor (αIIbβ3) (Homo sapiens, UniProt P05106+P08514); assay: Purified IIb/IIIa receptor assay, solid phase receptor assay; details: read-out: IC50 vs αIIbβ3; in vitro
Excerpt: Purified IIb/IIIa Receptor Assay
Human fibrinogen receptor (αvβ3) was purified from outdated platelets. (Pytela, R., Pierschbacher, M. D., Argraves, S., Suzuki, S., and Rouslahti, E. “Arginine-Glycine-Aspartic acid adhesion receptors”, Methods in Enzymology 144(1987):475-489.) Human vitronectin was purified from fresh frozen plasma as described in Yatohgo, T., Izumi, M., Kashiwagi, H., and Hayashi, M., “Novel purification of vitronectin from human plasma by heparin affinity chromatography,” Cell Structure and Function 13(1988):281-292. Biotinylated human vitronectin was prepared by coupling NHS-biotin from Pierce Chemical Company (Rockford, Ill.) to purified vitronectin as previously described. […]
This assay is essentially the same reported in Niiya, K., Hodson, E., Bader, R., Byers-Ward, V. Koziol, J. A., Plow, E. F. and Ruggeri, Z. M., “Increased surface expression of the membrane glycoprotein IIb/IIIa complex induced by platelet activation: Relationships to the binding of fibrinogen and platelet aggregation”, Blood 70(1987):475-483. […] The plate was read with a microtiter plate reader at a wavelength of 450 nm and when the maximum-binding control wells reached an absorbance of about 1.0, the final A450 were recorded for analysis. The data were analyzed using a macro written for use with the EXCEL™ spreadsheet program. […]

[3] = tested on: Human microvessel endothelial cell; assay: Human microvessel endothelial cell proliferation and migration; assay type: cell-based; details: human microvessel endothelial cells, αvβ3 dependent
angiogenesis = assay: Mouse corneal micropocket assay; assay type: in vivo; details: oral administration, 40 mg/kg
M21 human melanoma = assay: Tumor growth inhibition, M21 human melanoma in mice; assay type: in vivo, SCID mice
LLC tumor = assay: Tumor growth inhibition, LLC tumor in mice
Rice Leydig tumor cells = assay: Tumor growth inhibition, Rice Leydig tumor in SCID mice

Q: What does the source list for O=C(O)C[C@H](NC(=O)CNC(=O)c1cc(O)cc(NC2=NCC(O)CN2)c1)c1cc(Cl)cc(Br)c1O (some centres unmarked)?
A: IC50 [1]: < 1 nM; IC50 [2]: 200 nM; Inhibition of endothelial cell migration [3]: dose-dependently inhibited; Inhibition of endothelial cell proliferation [3]: dose-dependently inhibited; Inhibition of angiogenesis (angiogenesis): significantly inhibited; Inhibition of M21 human melanoma tumor growth (M21 human melanoma; SCID mice, dose range 0.2-30 mg/kg): dose-dependently inhibited; Reduction in final tumor volume (M21 human melanoma; XII 10 mg/kg BID PO from day 21, added to cyclophosphamide 150 mg/kg ip days 14, 16, 18): 44%; Inhibition of tumor growth with XII relative to cisplatin (M21 human melanoma; cisplatin at a maximum tolerated dose): additive; Median survival time (LLC tumor; cisplatin 10 mg/kg ip day 5, XII at 10 mg/kg): 33 days; Effect on growth of the LLC tumor (LLC tumor; cisplatin single ip dose 10 mg/kg on day 5, XII 1 and 10 mg/kg, oral, BID from day 1): did not affect; Inhibition of hypercalcemia (Rice Leydig tumor cells; administered orally, SCID mice): in a dose-dependent manner; Inhibition of tumor growth (Rice Leydig tumor cells; administered orally, SCID mice): in a dose-dependent manner; Tumor growth inhibition (Rice Leydig tumor cells; cisplatin at maximum tolerated dose, XII 10 mg/kg PO, compared to control-treated mice): 10%; Effect on survival time (Rice Leydig tumor cells; tumor bearing SCID mice): little effect
